{"sequences": {"note": "Sequences of proteins named here, by UniProt entry; tags and fusion partners are left off. Residues count along the entry.", "UniProt O54890, 26-787": "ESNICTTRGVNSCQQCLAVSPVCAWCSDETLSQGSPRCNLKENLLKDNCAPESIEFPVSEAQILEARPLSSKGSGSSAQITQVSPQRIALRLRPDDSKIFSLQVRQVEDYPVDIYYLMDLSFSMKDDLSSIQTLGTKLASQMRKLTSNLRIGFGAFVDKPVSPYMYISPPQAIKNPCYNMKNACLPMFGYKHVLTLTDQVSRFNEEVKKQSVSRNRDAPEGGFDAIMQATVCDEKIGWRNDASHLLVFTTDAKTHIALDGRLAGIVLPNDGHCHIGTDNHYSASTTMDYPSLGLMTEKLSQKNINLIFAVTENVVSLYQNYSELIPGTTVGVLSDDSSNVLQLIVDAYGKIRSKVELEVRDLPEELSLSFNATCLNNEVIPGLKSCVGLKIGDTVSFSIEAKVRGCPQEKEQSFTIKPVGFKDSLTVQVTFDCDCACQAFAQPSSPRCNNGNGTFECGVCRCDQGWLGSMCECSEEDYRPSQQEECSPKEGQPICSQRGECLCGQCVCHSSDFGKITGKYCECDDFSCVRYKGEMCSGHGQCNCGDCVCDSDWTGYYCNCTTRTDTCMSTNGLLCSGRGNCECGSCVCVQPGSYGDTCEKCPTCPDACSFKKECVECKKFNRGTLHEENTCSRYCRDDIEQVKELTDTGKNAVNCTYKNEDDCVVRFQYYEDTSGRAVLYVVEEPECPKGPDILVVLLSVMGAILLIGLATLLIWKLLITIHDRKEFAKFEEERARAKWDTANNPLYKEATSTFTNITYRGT", "UniProt P43406, 887-1044 limits assumed": "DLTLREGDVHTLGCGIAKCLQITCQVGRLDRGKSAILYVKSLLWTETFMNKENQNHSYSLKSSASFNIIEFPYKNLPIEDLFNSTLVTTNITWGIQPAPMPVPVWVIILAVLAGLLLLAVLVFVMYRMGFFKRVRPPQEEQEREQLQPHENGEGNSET", "UniProt P43406, 31-885 limits assumed": "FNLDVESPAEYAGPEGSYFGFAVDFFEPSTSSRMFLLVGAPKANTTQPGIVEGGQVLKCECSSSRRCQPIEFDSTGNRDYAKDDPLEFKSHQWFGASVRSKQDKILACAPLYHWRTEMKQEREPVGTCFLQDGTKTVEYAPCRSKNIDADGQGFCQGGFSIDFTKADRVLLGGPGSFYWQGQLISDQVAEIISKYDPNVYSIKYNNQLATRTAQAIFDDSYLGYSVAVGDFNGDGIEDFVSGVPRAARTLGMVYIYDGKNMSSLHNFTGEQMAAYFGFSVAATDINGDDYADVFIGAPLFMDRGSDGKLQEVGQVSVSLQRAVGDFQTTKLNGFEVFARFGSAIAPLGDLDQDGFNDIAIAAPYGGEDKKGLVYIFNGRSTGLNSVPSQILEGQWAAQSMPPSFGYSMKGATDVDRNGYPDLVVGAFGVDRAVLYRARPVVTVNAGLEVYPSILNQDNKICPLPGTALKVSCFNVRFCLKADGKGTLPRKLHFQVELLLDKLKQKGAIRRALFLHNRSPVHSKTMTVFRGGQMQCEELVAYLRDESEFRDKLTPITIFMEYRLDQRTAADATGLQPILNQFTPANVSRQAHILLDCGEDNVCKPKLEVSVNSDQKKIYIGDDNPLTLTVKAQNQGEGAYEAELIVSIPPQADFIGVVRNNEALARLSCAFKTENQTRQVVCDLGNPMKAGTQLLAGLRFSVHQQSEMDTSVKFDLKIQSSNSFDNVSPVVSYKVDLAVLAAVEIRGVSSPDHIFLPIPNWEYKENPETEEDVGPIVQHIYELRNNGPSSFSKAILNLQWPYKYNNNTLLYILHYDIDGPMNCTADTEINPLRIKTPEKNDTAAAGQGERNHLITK"}, "source": "patent US10689415B2", "about": "“Conjugates of RGD peptides and (bacterio)chlorophyll photosensitizers” (YEDA RESEARCH AND DEVELOPMENT COMPANY LTD., priority 2006, dated 2020)", "target": "αvβ3 integrin receptor (Mus musculus, UniProt O54890+P43406)", "experiment": "αvβ3 integrin receptor binding assay of Eu-RGD-4C on H5V endothelial cells (time-resolved fluorometry, Scatchard)"}
{"substance": "Eu-RGD-4C: RGD-4C labeled with Eu by direct conjugation of isothiocyanatophenyl-DTPA-Eu", "values": [{"measurement": "receptors per cell", "setting": "H5V cells", "value": "1-1.8 million receptors per cell"}, {"measurement": "1/Kd=Ka, the tested compound's affinity (Scatchard analysis)", "setting": "H5V cells, 4° C., 2 h", "value": "37.2 to 41.3", "unit": "nM"}, {"measurement": "Bmax (the maximal number of binding sites)", "setting": "H5V cells, 4° C., 2 h", "value": "4.3 to 7.7", "unit": "nM"}, {"measurement": "ratio of total binding to non-specific binding", "setting": "highest concentration", "value": "~4"}, {"measurement": "ratio of total binding to non-specific binding", "setting": "low ligand concentrations", "value": "~1"}, {"measurement": "non-specific binding from total added ligand (mean±SD)", "setting": "presence of 1 μM RGD-4C", "value": "4.9%±2.4%"}]}
